Screening results from PubChem.
UUG fidelity: yeast start codon fidelity modulation | S. cerevisiae UUG-firefly luciferase reporter, luminescence/redox ratio | activity score, % at 18.7 µM | hit rate 0.13% among 350,000 | AID 602363;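 active means replicate mean at a twofold rise or more, about +100% in these data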;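 further: firefly luciferase made from a UUG start codon reports start codon fidelity; reporter light over untreated wells divided by growth signal over untreated wells; some hits fall short of that in this replicate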
esBAF inh: inhibitors of esBAF chromatin remodeling in mouse ES cells. Bmi1-luciferase knock-in reporter, 24 h; 100% = twice the neutral-well signal. reporter increase, % at 12.5 µM. actives 2% (n = 350,000). AID 602393; in the data active means activation above about 40%;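 further: a rise in the Bmi1 reporter signal indicates esBAF inhibition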
E-sel inducer: E-selectin induction on HUVECs; P16581; HUVEC E-selectin immunofluorescence imaging; normalized: neutral wells 0, TNF-alpha wells 100; activation, % at 7.58 µM; actives 0.37% (n = 260,000); AID 686992;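 active means mean E-selectin-positive cell signal at least 10% of the positive control, reached in at least 60% of replicates, without over 20% cell loss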
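Read-out: % PE-positive cells | Test system: HUVEC | Doses: One compound dose added by pin transfer | Buffer or medium: EGM-2 over gelatin coat | Signal: Immunofluorescence imaging | Benchmarks: TNF-alpha, DMSO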
C2C12 statin: suppressors of simvastatin-induced myotoxicity in C2C12 myotubes; ATP luminescence, 48 h; scaled: DMSO 0, geranylgeraniol control 100; rescue of ATP level, % at 7.49 µM; actives 0.78% (n = 330,000); AID 602340;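 active means mean ATP rescue above about 67%, or every replicate alone reaching that limit, limit read from the data, passing the limit was not always enough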;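 further: myotubes were challenged with 10 µM simvastatin during compound exposure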
PGC1a acetyl inh: modulators of PGC1a acetylation; inhibition, % at 15.6 µM; actives 0.17% (n = 350,000); U2OS PGC1a acetylation, AlphaScreen anti-acetyl-lysine; with virally co-expressed GCN5 acetyltransferase;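 active means every replicate shows inhibition of at least 40%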
PglD inh: blocks C. jejuni PglD acetyltransferase activity | purified PglD enzyme, DTNB colorimetric CoA detection | inhibition, % at 12.5 µM | actives 0.098% (n = 360,000) | AID 602405; in the data active means inhibition above about 16%, passing the limit was not always enough
Numbers stand for hits; 0 = inactive; - = no result given. Rows were chosen to be rich in hits. Some 2.8% of all compounds tested hit in one or more screens of this group.

SMILES	UUG fidelity	esBAF inh	E-sel inducer	C2C12 statin	PGC1a acetyl inh	PglD inh
Cc1ccc(C(=O)NCCn2cc(SCC(=O)N3CCOCC3)c3ccccc32)cc1	0	53	0	0	0	0
Cc1cc(NC(=O)CSc2cn(CCNC(=O)c3ccccc3)c3ccccc23)no1	0	47	-	0	0	0
COc1ccc(NC(=O)N(C)C[C@@H]2Oc3ccc(N(C)C)cc3C(=O)N([C@@H](C)CO)C[C@H]2C)cc1	-	0	0	0	0	0
Cn1cnc(S(=O)(=O)N2C[C@@H](O)COC[C@@H]3O[C@@H](CC(=O)NC4Cc5ccccc5C4)CC[C@H]32)c1	0	0	0	0	0	0
O=C(C[C@H]1CC[C@@H](NC(=O)c2ccccc2)[C@H](CO)O1)NCc1ccncn1	0	0	0	0	0	0
Cc1cccc(Nc2cc(C)c3c(O)cccc3n2)c1C	0	60	0	0	0	0
Cc1cccc(NC(=S)N(C)C)c1C	-	0	-	0	0	-
O=c1c2ccccc2oc2ccccc12	0	0	-	0	0	0
O=c1c2ccccc2oc2c1ccc1ccccc12	0	72	-	0	0	0
O=c1cc(-c2ccco2)oc2c1ccc1ccccc12	0	0	-	103	0	0
CC(C)c1[nH]nc2c1C(C(C)C)C(C#N)=C(N)O2 (configuration not stated)	0	0	-	72	0	0
O=C(NC1CCCCC1)c1cc(-c2ccc(Cl)cc2)on1	0	49	-	0	-	0
O=C(NC1CCC(O)CC1)c1ccc(Br)o1 (configuration not stated)	0	0	0	0	0	0
O=C(NC1CCCC1)c1cc(-c2cccc(Cl)c2)on1	0	78	-	0	0	0
O=C(NC1CCC(O)CC1)c1ccc(-c2ccc(Cl)cc2)o1 (configuration not stated)	-	64	-	0	-	-
O=C(NC1CCCC1)c1cc(-c2ccc(Cl)cc2)on1	0	44	-	0	0	0
O=C(NC1CCCC1)c1cc(-c2ccc(Cl)cc2Cl)on1	0	0	-	0	0	0
CC(=O)N(C)C[C@H]1Oc2ncc(C#C[C@@H](C)O)cc2C(=O)N([C@H](C)CO)C[C@H]1C	0	0	0	0	0	0
C[C@@H]1CCCCO[C@H](CN(C)C(=O)Nc2ccc3c(c2)OCO3)[C@@H](C)CN([C@@H](C)CO)C(=O)c2cc(NS(=O)(=O)c3ccccc3)ccc2O1	0	0	0	-	0	0
CCCn1cnc2cc(NCc3cccc(OC)c3O)ccc21	0	56	-	0	-	0
CCn1cnc2cc(NCc3ccncc3)ccc21	0	0	-	0	0	0
CCn1cnc2cc(NCc3ccc(Cl)cc3)ccc21	0	55	-	0	-	0
CCCn1cnc2cc(NCc3ccccn3)ccc21	0	0	0	0	0	0
Cc1ccc(CNc2ccc3c(c2)ncn3C)cc1	0	70	-	0	0	0
Cc1ccc(CNc2ccc3c(c2)ncn3C(C)(C)C)cc1	-	0	0	0	0	-
SMILES	UUG fidelity	esBAF inh	E-sel inducer	C2C12 statin	PGC1a acetyl inh	PglD inh
C[C@@H]1CCCCO[C@@H](CN(C)C(=O)Nc2ccc(F)cc2)[C@@H](C)CN([C@H](C)CO)C(=O)c2cc(NC(=O)CCCN(C)C)ccc2O1	0	0	0	-	0	0
CCCC#Cc1ccc([C@H]2[C@@H](C#N)N(C(=O)C3CCCC3)[C@@H]2CO)cc1	0	0	0	0	0	0
C[C@H](CO)N1C[C@H](C)[C@H](CN(C)C(=O)Nc2ccc(C(F)(F)F)cc2)OCCCC[C@H](C)Oc2ccc(NC(=O)c3ccccc3)cc2C1=O	0	0	0	112	-	0
C[C@@H]1CCCCO[C@@H](CN(C)C(=O)Cc2ccccc2)[C@@H](C)CN([C@@H](C)CO)C(=O)c2cc(NC(=O)Nc3ccc(C(F)(F)F)cc3)ccc2O1	0	0	0	0	-	0
C[C@H](CO)N1C[C@H](C)[C@H](CN(C)C(=O)Cc2ccccc2)OCCCC[C@H](C)Oc2ccc(NC(=O)Nc3ccc(C(F)(F)F)cc3)cc2C1=O	0	0	0	97	-	0
C[C@@H]1CCCCO[C@@H](CN(C)C(=O)Nc2ccc(C(F)(F)F)cc2)[C@H](C)CN([C@@H](C)CO)C(=O)c2cc(NC(=O)c3ccccc3)ccc2O1	0	0	0	76	-	0
CC=Cc1ccc2n(c1=O)C[C@@H]1[C@@H](CO)[C@H](C(=O)N3CCc4ccccc4C3)N[C@H]21 (mixture of isomers)	-	0	0	0	-	0
